In article doi:10.1101/2024.06.03.596960 (bioRxiv, 2024) one finds koff and kon data, which are given here for 1 substance.

By UniProt entry, the sequences of proteins in these tests, tags left out. Where a name states a change or a piece, a line headed by the entry shows the natural chain unless it says otherwise. Residues count along the entry.
UniProt P63208, 2-163, chain 1 of 2: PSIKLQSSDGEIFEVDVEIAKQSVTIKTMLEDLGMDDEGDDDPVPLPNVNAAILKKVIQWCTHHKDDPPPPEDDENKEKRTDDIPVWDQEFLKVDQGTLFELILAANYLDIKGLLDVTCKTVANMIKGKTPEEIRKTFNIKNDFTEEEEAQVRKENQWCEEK
UniProt O14867: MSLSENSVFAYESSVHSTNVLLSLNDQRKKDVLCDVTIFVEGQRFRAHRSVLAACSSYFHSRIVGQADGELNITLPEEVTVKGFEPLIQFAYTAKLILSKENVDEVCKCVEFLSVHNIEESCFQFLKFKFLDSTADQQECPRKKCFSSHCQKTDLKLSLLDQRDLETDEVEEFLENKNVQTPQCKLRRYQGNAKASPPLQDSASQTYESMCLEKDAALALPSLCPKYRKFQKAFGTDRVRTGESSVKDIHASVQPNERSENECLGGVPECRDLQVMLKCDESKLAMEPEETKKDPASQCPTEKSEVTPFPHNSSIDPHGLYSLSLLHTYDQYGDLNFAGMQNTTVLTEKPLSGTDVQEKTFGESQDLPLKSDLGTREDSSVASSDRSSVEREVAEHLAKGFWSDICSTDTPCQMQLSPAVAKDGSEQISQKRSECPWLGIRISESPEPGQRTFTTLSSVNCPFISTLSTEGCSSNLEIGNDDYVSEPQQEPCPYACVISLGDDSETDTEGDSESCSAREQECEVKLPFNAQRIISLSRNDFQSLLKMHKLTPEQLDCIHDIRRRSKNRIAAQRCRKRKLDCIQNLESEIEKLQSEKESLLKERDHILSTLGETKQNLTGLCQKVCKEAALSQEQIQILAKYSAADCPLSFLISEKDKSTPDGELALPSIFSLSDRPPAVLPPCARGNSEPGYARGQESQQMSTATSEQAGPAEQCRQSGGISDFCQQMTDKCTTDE

In assay [1] the target is biotinylated ^AviSKP1-FBXO22(12-403) (UniProt P63208). The assay can be described thus: BLI. (In general: In BLI a coated tip is dipped into the sample, and binding shifts an interference pattern.)
The target is the same in assay [2]. The assay can be described thus: SPR. (In general: In SPR one partner is held on a chip, and binding of the other changes the refractive index at the surface.)

What is called koff is the first-order rate constant of dissociation. One may read the kon as the second-order rate constant of association. High values mean faster complex formation, low ones slower complex formation.

In assay [1], “BACH1 BTB domain (residues 7-128), wild type, tag-free (from UniProt O14867 7-128) (domain or fragment)” yielded a koff of 0.0033 s⁻¹ and a kon of 270000 M⁻¹ s⁻¹. In assay [2], the koff was 0.003 s⁻¹ and the kon is 510000 M⁻¹ s⁻¹.
